{
  "source": "patent US20220401383A1",
  "about": "(SHINKEI THERAPEUTICS, INC., priority 2019, published 2022)",
  "system": "CBD metabolism in human liver microsomes",
  "test": "Example 1: inhibition of CBD metabolism in pooled human liver microsomes",
  "data": [
    {"compound": "CC(=O)N1CCN(c2ccc(OCC3COC(Cn4ccnc4)(c4ccc(Cl)cc4Cl)O3)cc2)CC1", "note": "(stereo not shown) [Ketoconazole]", "values": [
      {"measurement": "Inhibition of CBD metabolism (in words)", "value": "inhibits CBD metabolism but is less potent than cobicistat, 6,7-dihydroxybergamottin and lansoprazole"}
    ]}
  ]
}
